As usually defined, the EC50 is the concentration at which the effect is half-maximal. Higher therefore signals a need for much substance.

Protein sequences, listed by entry. Tags and fused reporters are not part of them.
UniProt P41594, whole entry: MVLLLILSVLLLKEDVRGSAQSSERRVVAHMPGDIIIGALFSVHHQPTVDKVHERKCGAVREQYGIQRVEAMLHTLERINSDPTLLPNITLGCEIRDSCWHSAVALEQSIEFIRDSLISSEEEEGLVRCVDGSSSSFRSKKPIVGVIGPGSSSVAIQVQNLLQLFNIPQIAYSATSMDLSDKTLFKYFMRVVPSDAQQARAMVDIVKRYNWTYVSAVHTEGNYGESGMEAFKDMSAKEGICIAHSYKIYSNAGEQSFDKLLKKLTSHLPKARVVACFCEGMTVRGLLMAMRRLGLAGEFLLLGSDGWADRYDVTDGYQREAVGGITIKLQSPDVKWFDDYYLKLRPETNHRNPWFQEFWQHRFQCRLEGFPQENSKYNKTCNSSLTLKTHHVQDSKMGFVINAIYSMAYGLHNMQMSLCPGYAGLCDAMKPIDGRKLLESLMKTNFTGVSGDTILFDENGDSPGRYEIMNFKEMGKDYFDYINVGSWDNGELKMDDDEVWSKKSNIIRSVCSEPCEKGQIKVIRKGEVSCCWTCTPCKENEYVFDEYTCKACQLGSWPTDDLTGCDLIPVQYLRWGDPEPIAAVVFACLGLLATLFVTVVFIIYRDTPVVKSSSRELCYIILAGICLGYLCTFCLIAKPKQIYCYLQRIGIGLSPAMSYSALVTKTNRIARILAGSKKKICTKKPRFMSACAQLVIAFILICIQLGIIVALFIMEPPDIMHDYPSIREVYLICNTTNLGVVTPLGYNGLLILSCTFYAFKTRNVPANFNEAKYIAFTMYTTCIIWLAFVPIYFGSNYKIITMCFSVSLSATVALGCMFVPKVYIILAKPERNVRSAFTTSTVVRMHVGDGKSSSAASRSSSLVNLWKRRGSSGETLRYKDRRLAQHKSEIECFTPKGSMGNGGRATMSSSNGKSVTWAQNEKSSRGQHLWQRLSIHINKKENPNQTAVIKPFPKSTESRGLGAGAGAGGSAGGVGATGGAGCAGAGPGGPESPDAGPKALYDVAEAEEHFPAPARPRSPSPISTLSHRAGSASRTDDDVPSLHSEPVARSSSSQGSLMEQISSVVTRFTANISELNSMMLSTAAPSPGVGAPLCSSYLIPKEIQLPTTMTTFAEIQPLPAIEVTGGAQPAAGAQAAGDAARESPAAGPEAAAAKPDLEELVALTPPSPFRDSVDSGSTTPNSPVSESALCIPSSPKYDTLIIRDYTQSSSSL

The experiment addresses Metabotropic glutamate receptor 5 (Homo sapiens, UniProt P41594).

Regarding `N#Cc1cccc(C(=O)Nc2cc(-c3ccccc3)nn2-c2ccccc2)c1`, the midpoint of the response, the EC50, lay at 176 nM.

The record behind these values is ChEMBL document CHEMBL2424640, “Dihydrothiazolopyridone derivatives as a novel family of positive allosteric modulators of the metabotropic glutamate 5 (mGlu5) receptor” (J Med Chem, 2013).
